These results are taken from US9365613B2, “Acylated 4-amidino- and -4-guanidinobenzylamines for inhibition of plasma kallikrein” (The Medicines Company (Leipzig) GmbH, priority 2003, dated 2016).

Amino acid sequences for entries named in this document (tags omitted). A change or cut given only in a name is not applied to a line headed by its entry. Residues count along the entry.
UniProt P03952, 391-638 limits assumed: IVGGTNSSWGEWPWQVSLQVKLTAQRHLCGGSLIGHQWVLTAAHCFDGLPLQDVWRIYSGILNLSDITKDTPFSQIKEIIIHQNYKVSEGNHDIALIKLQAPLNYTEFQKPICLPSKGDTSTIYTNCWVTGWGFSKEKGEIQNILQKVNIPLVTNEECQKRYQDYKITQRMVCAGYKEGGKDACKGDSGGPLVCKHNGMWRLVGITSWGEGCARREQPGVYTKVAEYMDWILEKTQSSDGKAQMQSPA
UniProt P03952, 20-390 partner limits assumed: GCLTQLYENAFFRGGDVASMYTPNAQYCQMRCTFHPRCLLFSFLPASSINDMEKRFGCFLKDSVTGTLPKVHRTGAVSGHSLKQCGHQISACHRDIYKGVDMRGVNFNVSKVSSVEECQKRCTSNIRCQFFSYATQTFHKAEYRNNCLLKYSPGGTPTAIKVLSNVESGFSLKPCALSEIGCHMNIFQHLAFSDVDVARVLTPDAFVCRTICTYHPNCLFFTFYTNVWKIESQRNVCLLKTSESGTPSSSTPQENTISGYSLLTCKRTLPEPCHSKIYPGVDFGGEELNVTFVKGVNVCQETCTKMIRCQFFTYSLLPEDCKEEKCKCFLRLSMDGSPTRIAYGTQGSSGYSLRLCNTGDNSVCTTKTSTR
UniProt P00748, 373-615 limits assumed: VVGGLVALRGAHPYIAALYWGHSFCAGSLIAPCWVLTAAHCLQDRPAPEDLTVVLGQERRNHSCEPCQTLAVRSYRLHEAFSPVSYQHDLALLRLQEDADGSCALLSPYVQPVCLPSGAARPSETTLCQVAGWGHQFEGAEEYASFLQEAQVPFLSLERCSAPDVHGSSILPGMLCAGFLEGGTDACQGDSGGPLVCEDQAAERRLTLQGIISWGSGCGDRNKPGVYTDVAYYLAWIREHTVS
UniProt P03951, 388-625 limits assumed: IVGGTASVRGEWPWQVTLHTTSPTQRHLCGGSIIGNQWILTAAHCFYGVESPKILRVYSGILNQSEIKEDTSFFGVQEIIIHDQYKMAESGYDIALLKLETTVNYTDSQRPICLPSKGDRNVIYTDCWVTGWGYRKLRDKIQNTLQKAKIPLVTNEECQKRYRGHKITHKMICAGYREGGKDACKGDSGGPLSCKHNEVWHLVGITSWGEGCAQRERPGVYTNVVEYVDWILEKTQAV
UniProt P03951, 19-387 partner limits assumed: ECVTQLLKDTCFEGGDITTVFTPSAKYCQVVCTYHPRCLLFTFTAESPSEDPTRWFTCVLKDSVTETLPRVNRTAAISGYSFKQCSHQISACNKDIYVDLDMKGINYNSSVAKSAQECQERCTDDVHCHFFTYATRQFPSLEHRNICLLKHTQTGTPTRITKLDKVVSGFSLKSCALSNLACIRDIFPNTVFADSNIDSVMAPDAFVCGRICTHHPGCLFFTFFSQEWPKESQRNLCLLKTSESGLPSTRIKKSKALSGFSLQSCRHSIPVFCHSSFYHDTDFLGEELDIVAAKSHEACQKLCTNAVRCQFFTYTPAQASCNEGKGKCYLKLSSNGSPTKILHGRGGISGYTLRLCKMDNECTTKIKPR

For orientation: Ki means a dissociation constant, usually derived from enzyme kinetics or from competition with a known ligand.

Structures are written as SMILES.

In one experiment the target is plasma kallikrein (PK) (Homo sapiens, UniProt P03952). The experiment is described as follows: Determining the inhibitory constants: inhibition of PK (substrate Bzl-Pro-Phe-Arg-pNA). The conditions noted are these: read-out: Ki PK; Tris buffer pH 8.0, 25° C.; mean of at least three determinations; tested form: 2 TFA. As for the experimental part:
(§1) The inhibitory effect for the individual enzymes was determined in analogy with a method which has already been described (Stürzebecher et al., J. Med. Chem. 40, 3091-3099, 1997).
(§2) Specifically for determining the inhibition of PK, 200 μl of Tris buffer (0.05 M, 0.154 M NaCI, 5% ethanol, pH 8.0; contains the inhibitor), 50 μl of substrate (Bzl-Pro-Phe-Arg-pNA in H2O) and 25 μl of PK were incubated at 25° C. After 3 min, the reaction was terminated by adding 25 μl of acetic acid (50%) and the absorption at […] was determined using a Microplate Reader (Labsystems iEMS Reader MF). The Ki values were determined, in accordance with Dixon (Biochem. J. 55, 170-171, 1953), by means of linear regression and using a computer program. The Ki values are the mean of at least three determinations.

Another experiment deals with human factor XIIa (Homo sapiens, UniProt P00748). Nature of the experiment: Inhibitory constants for factor XIIa (substrate H-D-HHT-Gly-Arg-pNA, Chromozym XII). As to conditions: read-out: Ki F XIIa, tested form: 2 TFA. As for the experimental part:
as §1, §2
(§3) The inhibition of factor XIa and factor XIIa was determined in an analogous manner. When determining the inhibitory constants for human factor XIa (Haemochrom Diagnostica GmbH, Essen, Germany), H-D-Lys(Z)-Pro-Arg-pNA (Chromozym PCa, Roche Diagnostics GmbH, Mannheim, Germany) was used as the substrate.
H-D-HHT-Gly-Arg-pNA (Chromozym XII, Roche Diagnostics GmbH, Mannheim, Germany) was used as the substrate for measuring the inhibitory constants of human factor XIIa (Haemochrom Diagnostica GmbH, Essen, Germany).

For the next experiment, the target named is human factor XIa (Homo sapiens, UniProt P03951). Nature of the experiment: Inhibitory constants for factor XIa (substrate H-D-Lys(Z)-Pro-Arg-pNA, Chromozym PCa). The conditions noted are these: read-out: Ki F XIa, tested form: 2 TFA. How it is done:
as §1, §2, §3

Regarding `N=C(N)c1ccc(CNC(=O)CNC(=O)[C@@H](CCc2ccccc2)NS(=O)(=O)Cc2ccncc2)cc1`, the Ki at plasma kallikrein (PK) came out at 420 nM; at human factor XIIa, 160 nM; at human factor XIa it was 330 nM.
